The target of the assay is Collagenase 3 (Homo sapiens, UniProt P45452).

In ChEMBL document CHEMBL1800055, “Orally active MMP-1 sparing α-tetrahydropyranyl and α-piperidinyl sulfone matrix metalloproteinase (MMP) inhibitors with efficacy in cancer, arthritis, and cardiovascular disease” (J Med Chem, 2010) one finds IC50 data, which are given here for two compounds.

With `O=C(NO)C1(S(=O)(=O)c2ccc(Oc3ccncc3)cc2)CCOCC1`, 1000 pM corresponded to half-maximal inhibition (IC50).

For the compound `O=C(NO)C1(S(=O)(=O)c2ccc(Oc3ccc(OC(F)(F)F)cc3)cc2)CCN(C2CC2)CC1`, the IC50 worked out at 100 pM.

What is called IC50 is the point on the concentration scale where inhibition reaches its midpoint.
